In the test the test system is gonadal stimulation. Put plainly: direct gonadal stimulation with human chorionic gonadotropin. Format: in vivo. Conditions: Subject 8; human chorionic gonadotropin treatment.

“human chorionic gonadotropin: hormone used for direct gonadal stimulation” registered a testosterone of 459 ng/dL.

The values are drawn from patent US20150362491A1, “METHODS AND ASSAYS RELATING TO RNF216” (THE GENERAL HOSPITAL CORPORATION, priority 2013, published 2015).
